Measured values as given in patent publication EP3293174A1, “CRYSTALLINE SALTS OF BETRIXABAN” (SANDOZ AG, priority 2016, dated 2018).

Tests used:
[1] = Determination of the solubility in water (solvent addition technique); assay type: physicochemical; details: in water at 25°C, estimated by solvent addition
Description: About 10 mg of crystalline betrixaban salt were weighed out into a vial. Water was added to the vial in aliquots of 500 µL and 200 µL until the salt was dissolved. In between the water additions the samples was sonicated for about 5 min, followed by shaking at 25°C for about 10 to 15 min.

[2] = WO 2012/031017; cited from earlier work

COc1ccc(NC(=O)c2ccc(C(=N)N(C)C)cc2)c(C(=O)Nc2ccc(Cl)cn2)c1 [Betrixaban hydrochloride, form B, betrixaban hydrochloride]
Solubility ([1]; hydrochloride): >3000 µg/mL

COc1ccc(NC(=O)c2ccc(C(=N)N(C)C)cc2)c(C(=O)Nc2ccc(Cl)cn2)c1 [Betrixaban hydrobromide, form B, betrixaban hydrobromide]
Solubility ([1]; hydrobromide): >3000 µg/mL

COc1ccc(NC(=O)c2ccc(C(=N)N(C)C)cc2)c(C(=O)Nc2ccc(Cl)cn2)c1 [Betrixaban maleate form I, betrixaban maleate, reference compound]
Solubility [1]: 2700 µg/mL

COc1ccc(NC(=O)c2ccc(C(=N)N(C)C)cc2)c(C(=O)Nc2ccc(Cl)cn2)c1 [Betrixaban maleate form II, betrixaban maleate]
relative humidity at which form II reversibly converts to form III [2]: above 25%

Counter-ions that a name gives are not always drawn.
